Three compounds from ChEMBL document CHEMBL1122530, “Probes for narcotic receptor mediated phenomena. 7. Synthesis and pharmacological properties of irreversible ligands specific for mu or delta opiate receptors” (1984) can be followed below.

Chains of the proteins cited; added tags and fusions are not shown.
UniProt P33533, whole entry: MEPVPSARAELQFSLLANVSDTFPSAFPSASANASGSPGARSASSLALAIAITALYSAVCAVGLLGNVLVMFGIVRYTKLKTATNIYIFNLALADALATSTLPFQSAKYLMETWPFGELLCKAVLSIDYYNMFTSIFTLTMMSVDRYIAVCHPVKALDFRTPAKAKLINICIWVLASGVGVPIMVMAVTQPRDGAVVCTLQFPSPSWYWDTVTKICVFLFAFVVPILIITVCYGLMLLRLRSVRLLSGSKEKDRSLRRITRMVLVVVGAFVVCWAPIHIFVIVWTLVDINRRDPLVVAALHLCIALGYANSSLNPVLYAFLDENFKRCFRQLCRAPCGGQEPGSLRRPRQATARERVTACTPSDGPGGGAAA

For assay [1], the target named is T1, Delta-type opioid receptor (Rattus norvegicus, UniProt P33533). As to the kind of experiment: The binding affinity was evaluated against [3H]dalamid binding to rat brain membranes (Opioid receptor delta 1).
For assay [2], the target named is T1, Delta-type opioid receptor. As to the kind of experiment: The binding affinity was evaluated against [3H]dalamid binding to neuroblastoma X glioma hybrid cell NG108-15 (Opioid receptor delta 1)membranes.

The term EC50 denotes the concentration needed to bring the measured effect to its halfway point. A higher EC50 goes with a less potent agent. On to `CO[C@]12C=C[C@@]3(C[C@@H]1NC(=O)CBr)[C@H]1Cc4ccc(O)c5c4C3(CCN1C)[C@H]2O5`, for which the results for the EC50 in assay [1] and in assay [2] were 70 nM and 50 nM, respectively.

For `CO[C@]12C=C[C@@]3(C[C@@H]1N=C=S)[C@H]1Cc4ccc(O)c5c4C3(CCN1C)[C@H]2O5`, the figures for the EC50 in assay [1] and in assay [2] were 50 nM and 20 nM, respectively.

Regarding `COC(=O)/C=C/C(=O)N[C@H]1C[C@@]23C=C[C@]1(OC)[C@@H]1Oc4c(O)ccc5c4C12CCN(C)[C@@H]3C5`, the EC50 in assay [1] and in assay [2] was 50 nM each time.
